Laboratory results published in US20220227827A1.

Molecular target: Human IL10R1 (human) (UniProt Q13651)
Assay: ELISA, human IL10R1 coated at 5 ug/mL, detection with goat anti-hIgG-HRP

EC50: 2.94 ng/mL
Substance: Erb-(IL10)2 (Fc fusion)
